In PubChem BioAssay AID493011 (Sanford-Burnham Center for Chemical Genomics, 2011) one finds inhibition data, which are given here for 2 compounds.

Sequences of proteins named here, by UniProt entry; tags and fusion partners are left off.
UniProt P31941, whole entry: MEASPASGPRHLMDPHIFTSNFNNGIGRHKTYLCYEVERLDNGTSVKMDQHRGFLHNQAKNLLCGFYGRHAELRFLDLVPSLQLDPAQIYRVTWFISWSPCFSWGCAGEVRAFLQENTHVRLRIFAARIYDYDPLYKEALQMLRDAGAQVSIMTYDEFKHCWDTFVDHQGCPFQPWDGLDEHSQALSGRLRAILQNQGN

SMILES strings stand for the structures. The list shows a part of the results, in another mix than the full data. The source made the active and inactive calls.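 The calls were made as follows: active = at least 40% inhibition at 20 µM here, with at most 30% in a related deaminase screen; inactive = the rest.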

For the experiment, the target named is DNA dC->dU-editing enzyme APOBEC-3A (Homo sapiens) (UniProt P31941). Put plainly: blockers of A3A cytidine deamination on DNA – biochemical, FAM/TAMRA oligo cleavage fluorescence, selectivity assay for APOBEC3G inhibitor project, primary screen (AID 493011).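 Also: plate controls were A3A with DMSO for no effect and wells lacking A3A enzyme for full effect.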 To be noted: recombinant A3A, FAM/TAMRA ssDNA deamination fluorescence; at 20 µM; active compounds read high.
Regarding `CCC(=O)N(c1ccccc1)C1(COC)CCN(CCc2cccs2)CC1`, the inhibition was inactive: -1.96%.
Then `CCC(=O)N(c1ccccc1)C1(COC)CCN(CCn2nnn(CC)c2=O)CC1`, with inactive: 2.55%.

One may read the inhibition as the relative decrease from the control value, in per cent.
